Assay results: ChEMBL document CHEMBL1133563, “Development of new hydroxamate matrix metalloproteinase inhibitors derived from functionalized 4-aminoprolines” (J Med Chem, 2000)

What was measured:
Interstitial collagenase = biological target: T1, Interstitial collagenase (Homo sapiens, UniProt P03956); assay: In vitro inhibitory activity against matrix metalloprotease -1 (collagenase-1)
T1 sequence (P03956 whole entry): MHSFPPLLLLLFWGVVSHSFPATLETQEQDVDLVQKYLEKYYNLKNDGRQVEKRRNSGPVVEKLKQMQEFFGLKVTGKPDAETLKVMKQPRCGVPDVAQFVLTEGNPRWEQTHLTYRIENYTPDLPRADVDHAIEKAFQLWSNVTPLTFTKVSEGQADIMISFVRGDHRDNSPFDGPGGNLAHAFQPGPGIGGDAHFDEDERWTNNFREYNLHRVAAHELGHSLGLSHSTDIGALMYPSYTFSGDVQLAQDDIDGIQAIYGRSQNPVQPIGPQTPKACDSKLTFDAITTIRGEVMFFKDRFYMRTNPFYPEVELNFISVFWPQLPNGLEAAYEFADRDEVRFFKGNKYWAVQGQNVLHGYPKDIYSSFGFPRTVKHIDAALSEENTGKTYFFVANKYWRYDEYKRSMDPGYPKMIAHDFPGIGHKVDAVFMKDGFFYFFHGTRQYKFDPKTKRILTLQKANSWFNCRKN

Collagenase 3 = Collagenase 3 (Homo sapiens, UniProt P45452); assay: In vitro inhibitory activity against human recombinant matrix metalloprotease-13 (collagenase-3)

| SMILES | IC50 (Interstitial collagenase) [nM] | IC50 (Collagenase 3) [nM] |
| --- | --- | --- |
| CCCCOc1ccc(S(=O)(=O)N2C[C@@H](N3C(=O)CN(C)C3=O)C[C@@H]2C(=O)NO)cc1 | 920 |  |
| COc1ccc(S(=O)(=O)N2C[C@@H](NCCc3ccccc3)C[C@@H]2C(=O)NO)cc1 |  | 1 |
